Reference: US20180207228A1, “PEPTIDE COMBINATIONS AND USES THEREOF FOR TREATING GRASS ALLERGY” (ALK-Abelló A/S, priority 2015, published 2018)

Experiments:
[1] = test system: release of IL-5 upon T cell activation; assay: Fluorospot assay, IL-5 release (DK1-TCL01, US1-TCL01); format: cell-based, human; conditions: head prints TCL-02 DK1; text: 25 TCL-01 DK1 lines
[2] = test system: allergen specific T cells; assay: T cell proliferation assay (72 h) on donor derived T cell lines (TCL02/TCL03); format: cell-based, human; conditions: for Proliferation % donor coverage (TCL-02 DK1): T cell lines TCL-02 DK1, 30 donors, hit criteria SI>=2, CPM>=1000; for Proliferation strength (TCL-02 DK1): T cell lines TCL-02 DK1, strength of response (average relative magnitude); for donor coverage, proliferation: modified and parent peptides 2 μg/ml
[3] = test system: release of IFN-γ upon T cell activation; assay: Fluorospot assay, IFN-γ release (DK1-TCL01, US1-TCL01); format: cell-based, human; conditions: head prints TCL-02 DK1; 17 TCL-01 DK1 lines
[4] = test system: grass allergic donor derived T cell lines (TCL-02 DK-2); assay: Cross-reactivity of homologue peptides, proliferation on TCL02-DK2 (Study XR1); format: cell-based, human; conditions: 2 μg/ml, TCL02-DK2, 21 donors
[5] = 3 mg/mL, acetate salt, non-filtered

Compound	IL-5-Fluorospotr % donor coverage (TCL-02 DK1) [1]	Proliferation % donor coverage (TCL-02 DK1) [2]	Proliferation strength (TCL-02 DK1) [2]	IFN-gamma % donor coverage (TCL-02 DK1) [3]	experimental cross-reactivity [4]	Visual inspection after 60 min pH 4.5 ([5]; 250 mM D-Mannitol and 25 mM sodium acetate, pH 4.5)	Visual inspection after centrifugation pH 4.5 ([5]; 250 mM D-Mannitol and 25 mM sodium acetate, pH 4.5, after centrifugation)	Visual inspection after 60 min pH 7 ([5]; 250 mM D-Mannitol and 25 mM sodium phosphate, pH 7.0)	donor coverage, proliferation ([2]; TCL03-DK1 and DK2, 27 donors)	T cell coverage of modified peptide compared to the parent peptide ([2]; 2 μg/ml, TCL03-DK1 and DK2, 27 donors)
CSCC[C@H](NC(=O)CNC(=O)[C@H](CCCCN)NC(=O)[C@H](CCC(=O)O)NC(=O)[C@@H](NC(=O)[C@H](CC(C)C)NC(=O)[C@H](Cc1ccccc1)NC(=O)[C@H](CCCNC(=N)N)NC(=O)[C@H](Cc1ccccc1)NC(=O)[C@H](CC(N)=O)NC(=O)[C@H](Cc1ccccc1)NC(=O)[C@@H]1CCCN1C(=O)CNC(=O)[C@H](CCC(N)=O)NC(=O)[C@H](CC(C)C)NC(=O)[C@@H]1CCCN1C(=O)[C@@H](N)CCC(=O)O)[C@@H](C)O)C(=O)N[C@@H](CCCCN)C(=O)N[C@@H](CC(N)=O)C(=O)N[C@H](C(=O)O)C(C)C [compound 29]	4.00%	13.33%	1.70	0.00%						
CC[C@H](C)[C@H](NC(=O)[C@@H](NC(=O)[C@H](CCC(N)=O)NC(=O)[C@H](CC(C)C)NC(=O)[C@H](CCC(=O)O)NC(=O)CNC(=O)[C@H](C)NC(=O)[C@@H]1CCCN1C(=O)[C@@H](NC(=O)[C@@H](N)C(C)C)[C@@H](C)CC)C(C)C)C(=O)N[C@@H](CCC(=O)O)C(=O)N[C@@H](CCCCN)C(=O)N[C@H](C(=O)N[C@@H](CC(=O)O)C(=O)N[C@@H](C)C(=O)N[C@@H](C)C(=O)N[C@@H](Cc1ccccc1)C(=O)N[C@@H](CCCCN)C(=O)N[C@H](C(=O)N[C@@H](C)C(=O)O)C(C)C)C(C)C [compound 82]	4.00%	20.00%	2.60	0.00%						
CC[C@H](C)[C@H](N)C(=O)N[C@@H](CC(N)=O)C(=O)N[C@H](C(=O)NCC(=O)N[C@@H](Cc1ccccc1)C(=O)N[C@@H](CCCCN)C(=O)N[C@@H](C)C(=O)N[C@@H](C)C(=O)N[C@H](C(=O)N[C@@H](C)C(=O)N[C@@H](C)C(=O)N[C@@H](C)C(=O)N[C@@H](C)C(=O)NCC(=O)N[C@H](C(=O)O)C(C)C)C(C)C)C(C)C [compound 114]	37.50%	56.67%	11.10	0.00%						
CC[C@H](C)[C@H](NC(=O)CNC(=O)[C@@H](N)CO)C(=O)N[C@@H](C)C(=O)N[C@@H](Cc1ccccc1)C(=O)NCC(=O)N[C@@H](CO)C(=O)N[C@@H](CCSC)C(=O)N[C@@H](C)C(=O)N[C@@H](CCCCN)C(=O)N[C@@H](CCCCN)C(=O)NCC(=O)N[C@@H](CC(=O)O)C(=O)N[C@@H](CCC(=O)O)C(=O)N[C@@H](CCC(N)=O)C(=O)O [compound 117]	16.67%	31.03%	6.20	8.00%						
C[C@H](NC(=O)CNC(=O)[C@@H](NC(=O)[C@@H]1CCCN1C(=O)[C@H](CCCCN)NC(=O)CNC(=O)[C@H](Cc1ccc(O)cc1)NC(=O)[C@H](Cc1c[nH]c2ccccc12)NC(=O)[C@@H](NC(=O)[C@@H](N)CO)[C@@H](C)O)[C@@H](C)O)C(=O)NCC(=O)N1CCC[C@H]1C(=O)N[C@@H](CCCCN)C(=O)N[C@@H](CC(=O)O)C(=O)N[C@@H](CC(N)=O)C(=O)O [compound 119]	16.67%	31.03%	4.20	8.00%						
CC(C)C[C@H](NC(=O)[C@@H]1CCCN1C(=O)[C@H](CCC(=O)O)NC(=O)[C@H](Cc1c[nH]c2ccccc12)NC(=O)[C@H](CCC(=O)O)NC(=O)[C@@H](N)CCC(=O)O)C(=O)N[C@H](C(=O)N[C@@H](CCCCN)C(=O)N[C@@H](CCCCN)C(=O)NCC(=O)N[C@@H](CC(N)=O)C(=O)N[C@H](C(=O)N[C@@H](Cc1c[nH]c2ccccc12)C(=O)N[C@@H](CCC(=O)O)C(=O)N[C@H](C(=O)O)C(C)C)C(C)C)[C@@H](C)O [compound 120]	16.67%	37.93%	5.00	4.00%						
CC(C)[C@H](NC(=O)[C@H](C)NC(=O)[C@H](C)NC(=O)[C@H](CCCCN)NC(=O)[C@H](Cc1ccccc1)NC(=O)CNC(=O)[C@H](C)NC(=O)[C@@H](N)CC(N)=O)C(=O)N[C@@H](C)C(=O)N[C@@H](C)C(=O)N[C@@H](C)C(=O)N[C@@H](C)C(=O)N[C@H](C(=O)N[C@H](C(=O)N1CCC[C@H]1C(=O)O)C(C)C)C(C)C [compound 124]	25.00%	46.67%	9.50	0.00%						
CSCC[C@H](NC(=O)CNC(=O)[C@H](CCCCN)NC(=O)[C@H](CCC(=O)O)NC(=O)[C@@H](NC(=O)[C@H](CC(C)C)NC(=O)[C@H](Cc1ccccc1)NC(=O)[C@H](CCCNC(=N)N)NC(=O)[C@H](Cc1ccccc1)NC(=O)[C@H](CC(N)=O)NC(=O)[C@H](Cc1ccccc1)NC(=O)[C@@H]1CCCN1C(=O)CNC(=O)[C@H](CCC(N)=O)NC(=O)[C@H](CC(C)C)NC(=O)[C@@H]1CCCN1C(=O)[C@@H](N)CCC(=O)O)[C@@H](C)O)C(=O)N[C@@H](CCCCN)C(=O)N[C@@H](CC(N)=O)C(=O)N[C@H](C(=O)O)C(C)C [peptide 216]					showed cross-reactivity	Hair	Ok	Gel-like surface ++	40%	
CSCC[C@H](NC(=O)CNC(=O)[C@H](CCCCN)NC(=O)[C@H](CCC(=O)O)NC(=O)[C@@H](NC(=O)[C@H](CC(C)C)NC(=O)[C@H](Cc1ccccc1)NC(=O)[C@H](CCCNC(=N)N)NC(=O)[C@H](Cc1ccccc1)NC(=O)[C@H](CC(N)=O)NC(=O)[C@H](Cc1ccccc1)NC(=O)[C@@H]1CCCN1C(=O)CNC(=O)[C@H](CCC(N)=O)NC(=O)[C@H](CC(C)C)NC(=O)[C@@H]1CCCN1)[C@@H](C)O)C(=O)N[C@@H](CCCCN)C(=O)N[C@@H](CC(N)=O)C(=O)N[C@H](C(=O)O)C(C)C [peptide 272]									18%	Markedly reduced T cell coverage
